Like-named read-outs stand apart in the source and are kept apart here.
Legend:
Assay in all cases: EMSA competition
[1] = biological target: T1, Ku heterodimer (Ku70/Ku80) (Homo sapiens, UniProt P12956;P13010 1-609;1-732)
[2] = biological target: T1, Ku heterodimer (Ku70/Ku80); remark: listed apart in the source
[3] = biological target: T1, Ku heterodimer (Ku70/Ku80); remark: listed apart in the source

Binder	binding result [3]	further results
CAGCTCCTCGCCCTTGCTCA (XNA, LNA bases (underlined positions lost in text); all phosphorothioate) [LNA ssO]		binding result [1]: binds
CGAACACCGGTACCCAGCTTTTGTTCCCTTTA (ssDNA) [32 nt ssO, non-biotinylated]		binding result [2]: binds
CGAACACCGGTACCCAGCTTTTGTTCCCTTTA (ssDNA, 3' biotin) [32 nt ssO 3'-biotin]	binds	
CGAACACCGGTACCCAGCTTTTGTTCCCTTTA (ssDNA, 5' biotin) [32 nt ssO 5'-biotin]	binds	
CGAACACCGGTACCCAGCTTTTGTTCCCTTTA (ssDNA, 5' and 3' biotin) [32 nt ssO 5'- and 3'-biotin]	binds	
